Earlier results as cited in PMC3196243.

Molecular target: PEP-19 IQ motif (Homo sapiens) (UniProt P48539)
Conditions: cited from earlier work

Calmodulin (from UniProt P0DP23)
Kd: 13 µM
